HEK293 tox – cytotoxicity counter-screen for GLP-1 receptor inverse agonists. HEK293 cAMP-luciferase reporter cells, luminescence, 24 h. Potency, µM (doses to about 38.3 µM), for the others: at the highest dose activity change, negative = inhibition, actives largely listed as inhibitors. 410,000 compounds, 0.13% hits. AID 624418;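 note: loss of luciferase light is scored as toxicity; potency is the fitted concentration of half-maximal effect; % is set by controls: 0 for no effect and ±100 for the full control effect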
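1536-well qHTS counterscreen of the MLSMR; 200 cells/uL, 12 h pre-incubation, 23 nL cpd, 24 h at 37 deg C 5% CO2, luciferase detection reagent, 12 min RT, luminescence. Inhibition = undesired.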
miR-21 FLuc – miR-21 reporter, rising signal; HeLa miR-21 FLuc reporter, luciferase, 48 h; Potency, µM (titrated, usually from 38.3 µM), without a hit: top-dose reporter change, positive = more light; AID 2288; 340,000 tested, under 10 active; active = well fitted rising curve with a large enough effect; inconclusive = small, poorly fitted or top-dose-only effect; inactive = no such curve, though single readings can be large or run the other way;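 further: % of control where 0% means no effect; miR-21 action dims this reporter so a rising signal means less miR-21 action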
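Compounds were titrated across several concentrations (up to approximately 40 uM) and incubated 48 hours with HeLa miR-21-FLuc reporter cells (miR-21 target sequence downstream of FLuc, endogenous miR-21). Readout was firefly luciferase luminescence after lytic detection reagent.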
GLP-1R agonist – agonists of human GLP-1 receptor | HEK293 GLP-1R CRE-luciferase, luminescence, 4-6 h; cells express a hypersensitive GLP-1R form | Potency, µM (highest dose often 45.6 µM), for the others: at the top dose activation, usual class: activators | 380,000 compounds, 0.007% hits; note: potency is the fitted concentration of half-maximal effect; % of control where 0% means no effect
PTHR1 ag – activates the human parathyroid hormone receptor PTHR1. HEK293 GP2 PTHR1 cells, GloSensor cAMP luminescence, 1 h. Q03431. 410,000 compounds, 0.075% hits. Potency, µM (doses to about 115 µM), inactives show at the highest dose activation, actives largely listed as activators; note: potency is the fitted concentration of half-maximal effect; nearly all actives have a fitted effect of over 55% in size
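HEK-293-derived GP2 cells expressing PTHR1 and a GloSensor cAMP reporter, 3,000/well, plated overnight, given luciferin plus IBMX (each 0.5 mM as added) for 1 h at 37 °C, then compound for 1 h at 37 °C. Luminescence was read after 15 min at room temperature.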
Pin1 inh – inhibitors of human Pin1 | 390,000 compounds, 0.009% hits | Potency, µM (doses to about 115 µM), for the others: at the highest dose activity, negative = inhibition, most hits filed as inhibitors | Pin1 FP peptide displacement, HiFluor488, 10 min | Q13526; active = well fitted inhibition curve with a large enough effect in the polarisation, with a control signal flat, not every such curve was filed as active; inconclusive = small, poorly fitted or top-dose-only effect, or effect the other way, or a change in a side signal; inactive = no such curve, though single readings can be large or run the other way; the % refers to the polarisation; note: potency is the fitted concentration of half-maximal effect; % is set by controls: 0 for no effect and ±100 for the full control effect
GLP1R inv ag – GLP-1 receptor (human) inverse agonism; HEK293 GLP-1R CRE-luciferase, luminescence, 24 h; GLP-1R form is constitutively active; 410,000 compounds, 1.6% hits; Potency, µM (series often up to 38.3 µM), for the others: at the top dose activity change, negative = inhibition, most hits filed as inhibitors; note: potency is the fitted concentration of half-maximal effect; % is set by controls: 0 for no effect and ±100 for the full control effect; nearly all actives have a fitted effect of over 55% in size
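Cells are plated, allowed 12 hours at 37 deg C, then treated with compounds for 24 hr before luciferase detection reagent is added and luminescence is read after 12 min at room temperature. The HEK293 line carries constitutively active GLP-1R with a cAMP-responsive reporter.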
An asterisk follows results filed as active; i = inactive; ? = inconclusive; / = not tested or not shown; [ ] = dose if it differs, or a comment. A selection: hits, their analogues and other compounds. The true share with any hit is near 1.7%. Unless noted, calls come from the whole dose curve; as a rule, active = well fitted curve in the direction sought with a large enough effect; inconclusive = small, poorly fitted or top-dose-only effect, or another doubt; inactive = no such curve, though single readings can be large; an effect the other way counts as inactive or inconclusive.

Molecule | HEK293 tox | miR-21 FLuc | GLP-1R agonist | PTHR1 ag | Pin1 inh | GLP1R inv ag
COc1ccc(OC)c(/C=C/c2ccc3cccc(O)c3n2)c1 | / | -7% | / | / | / | /
CCn1ncc(Br)c1C(=O)Nc1ccc(C(C)C)cc1 | 3% | -36% | ? | -73% | ? | 8.9µM*
O=C1c2cccc3c2[C@@H](CCC3)CN1[C@@H]1CN2CCC1CC2 | / | / | -5% | / | / | /
c1ccc2oc(C3=NNC(=NC4CC4)SC3)cc2c1 | ? | 3% | 11% | -39% | 12% | 8.9µM*
Cc1cccc(N2CCN(C(=O)Cn3ncc4c3-c3cc(C)ccc3OC4)CC2C)c1 (stereo not given) | -12% | 27% | / | -20% | 3% | 11µM*
CCN(CC)C(=S)NC(=O)c1ccc(F)cc1 | 3.5µM* | 3% | 7% | -21% | 7% | ?
Oc1[nH]c2ccccc2c1N=NC(=S)NCC1CCCO1 (stereo not given) | ? | -21% | 12% | -16% | 6% | 2%
Oc1[nH]c2ccc(Br)cc2c1N=NC(=S)NCC1CCCO1 (stereo not given) | ? | 0% | 2% | i | -1% | 13%
Cc1cc(C)c2[nH]c(O)c(N=NC(=S)NCC3CCCO3)c2c1 (stereo not given) | 8.9µM* | 2% | 11% | i | 0% | ?
Oc1[nH]c2c(Cl)cc(Cl)cc2c1N=NC(=S)NCC1CCCO1 (stereo not given) | 4µM* | -5% | 11% | -20% | 1% | ?
CCn1c(O)c(N=NC(=S)NCC2CCCO2)c2ccccc21 (stereo not given) | ? | 16% | 7% | -15% | -2% | 2.8µM*
CC(=O)/C(N=Nc1nc2c([nH]1)c(=O)n(C)c(=O)n2C)=C(\C)O | 2% | -2% | 13µM* | i | ? | 80%
Cc1cc2c(s1)c1cnn(Cc3ccccc3C)c(=O)c1n2C | / | / | / | / | -2% | /
C/C(=N\N(c1ccccc1)c1ccccc1)c1ccco1 | 9% | -1% | -3% | -44% | -6% | 8.9µM*
OC(COc1ccc(CNCCc2ccccc2F)cc1)CN1CCCCC1 (stereo not given) | 3% | 0% | -3% | -10% | 4% | 5µM*
Cc1ccc(-c2ccc(/C=N/N3C(=O)C4C5C=CC(C6CC56)C4C3=O)o2)c([N+](=O)[O-])c1 (stereo not given) | -27% | -10% | 2% | -14% | -1% | 3.5µM*
COc1cccc(N2CCN(c3ncnc4c3[nH]c3ccc(F)cc34)CC2C)c1 (stereo not given) | 3.2µM* | ? | -54% | -21%[57.5 µM] | 4% | ?
COc1ccc2[nH]c3c(N4CC(C)OC(C)C4)ncnc3c2c1 (stereo not given) | -28% | -11% | 13% | -3% | -2% | 16%
COc1ccc(CCNC(=O)Cn2c(=O)nc(-c3ccccc3)c3ccccc32)cc1OC | -1% | 0% | / | -13% | -5% | 6%
CCOC(=O)c1cc(-c2ccccc2)n(CCC(=O)Nc2ccc(C(F)(F)F)cc2)c1C | ? | ? | / | -91% | 8% | 7.1µM*

The closing four records of the section above are carried over, then new ones follow:
Molecule | HEK293 tox | miR-21 FLuc | GLP-1R agonist | PTHR1 ag | Pin1 inh | GLP1R inv ag
COc1cccc(N2CCN(c3ncnc4c3[nH]c3ccc(F)cc34)CC2C)c1 (stereo not given) | 3.2µM* | ? | -54% | -21%[57.5 µM] | 4% | ?
COc1ccc2[nH]c3c(N4CC(C)OC(C)C4)ncnc3c2c1 (stereo not given) | -28% | -11% | 13% | -3% | -2% | 16%
COc1ccc(CCNC(=O)Cn2c(=O)nc(-c3ccccc3)c3ccccc32)cc1OC | -1% | 0% | / | -13% | -5% | 6%
CCOC(=O)c1cc(-c2ccccc2)n(CCC(=O)Nc2ccc(C(F)(F)F)cc2)c1C | ? | ? | / | -91% | 8% | 7.1µM*
CCOC(=O)c1cc(-c2ccccc2)n(CCCC(=O)Nc2ccc(CC)cc2)c1C | -17% | 14% | / | -26% | 21% | 10µM*
CCOC(=O)c1cc(-c2ccccc2)n(-c2cccc(C(=O)Nc3ccc(OCC)cc3)c2)c1C | 4% | 14% | / | -7% | ? | 5µM*
Cc1ccc(C)c(S(=O)(=O)N2CCCC2CNC(=O)C(=O)Nc2ccccc2)c1 (stereo not given) | 2% | / | -1% | -30% | / | ?
COc1ccc(NC(=O)C(=O)NCC2CCCN2S(=O)(=O)c2cc(C)ccc2C)cc1 (stereo not given) | ? | / | -4% | -11% | 15% | 4µM*

Source: PubChem BioAssay
